# ChEMBL document CHEMBL1150972, “Biochemical and cellular effects of c-Src kinase-selective pyrido[2, 3-d]pyrimidine tyrosine kinase inhibitors” (Biochem Pharmacol, 2000)
# Amino acid sequences for entries named in this document (tags omitted).
# UniProt P11362, whole entry: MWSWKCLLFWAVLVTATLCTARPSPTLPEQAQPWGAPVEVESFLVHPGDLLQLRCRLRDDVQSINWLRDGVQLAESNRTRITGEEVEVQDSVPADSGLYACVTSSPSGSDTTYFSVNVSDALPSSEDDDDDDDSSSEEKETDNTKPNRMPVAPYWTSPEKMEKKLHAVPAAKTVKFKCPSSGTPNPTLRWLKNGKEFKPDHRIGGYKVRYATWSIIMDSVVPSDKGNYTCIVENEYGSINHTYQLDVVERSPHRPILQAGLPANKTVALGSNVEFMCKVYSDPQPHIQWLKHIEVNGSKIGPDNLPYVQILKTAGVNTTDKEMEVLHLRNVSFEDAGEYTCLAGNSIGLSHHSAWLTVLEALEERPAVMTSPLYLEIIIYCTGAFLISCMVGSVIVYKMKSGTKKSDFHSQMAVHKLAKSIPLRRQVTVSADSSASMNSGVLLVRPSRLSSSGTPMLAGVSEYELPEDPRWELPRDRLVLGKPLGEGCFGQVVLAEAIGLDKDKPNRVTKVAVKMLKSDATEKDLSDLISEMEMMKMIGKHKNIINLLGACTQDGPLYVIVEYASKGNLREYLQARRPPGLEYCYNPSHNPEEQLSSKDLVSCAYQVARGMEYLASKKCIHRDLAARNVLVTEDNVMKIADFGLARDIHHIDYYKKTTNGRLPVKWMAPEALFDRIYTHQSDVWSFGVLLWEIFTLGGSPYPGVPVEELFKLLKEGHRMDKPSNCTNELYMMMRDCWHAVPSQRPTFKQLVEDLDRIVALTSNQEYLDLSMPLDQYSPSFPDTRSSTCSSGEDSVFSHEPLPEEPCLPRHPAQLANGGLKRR
# pIC50: −log10 of the molar value.
# Experiments:
# HCT-8 = assay: Inhibition of HCT-8 clonogenic growth in soft agar with pretreatment; type: functional, cell-based; conditions: Homo sapiens
# [1] = molecular target: Fibroblast growth factor receptor 1 (Homo sapiens, UniProt P11362); assay: Inhibition of bFGFR
smiles,measurement,setting,value
Cn1c(=O)c(-c2c(Cl)cccc2Cl)cc2cnc(Nc3ccc(F)cc3)nc21,pIC50,HCT-8,6.05
same,pIC50,[1],6.03
